From PubChem BioAssay AID592 (National Center for Advancing Translational Sciences (NCATS), 2007) come the findings set out here.

The structures appear in SMILES notation. The list shows a part of the results. Active and inactive are the calls of the source. No rule for the calls is given here.

The nature of this assay: qHTS Assay for Spectroscopic Profiling in A647 Spectral Region. The conditions noted are these: Compound fluorescence, A647 channel (570/671 nm), Tris buffer; hits give high values. The text has this:
NIH Molecular Libraries Screening Centers Network [MLSCN] NIH Chemical Genomics Center [NCGC] […] Occasionally, the artifactual effect may originate from the compounds own spectral or other biophysical properties which generally tend to track its assay concentration. Pre-screening/profiling the library with respect to the compounds spectral properties should help one exclude false positives early on. While the most informative fluorescent profiling data set is obtained by performing a full excitation and emission scan of each well by using a monochromator-based plate reader, such an approach is practical only on a very limited scale as scanning each well requires long time. An alternative approach, applied here, is to perform plate reader scans using selected excitation and emission wavelength pairs to generate a multidimensional relational database that correlates compound concentration and the respective relative fluorescence intensity at a given wavelength set. A standard curve of Alexa 647 (A647) present on each plate as six-point concentration series, was used to compute a normalized fluorescence response, termed dye-equivalent concentration, for each compound at each concentration.
NCGC Assay Protocol Summary: Buffer: 100 mM Tris buffer, pH 8.0 Dye standard plate: The wells in columns 1 through 4 of a Kalypsys polypropylene 1536-well compound plate were filled with standard solutions of fluorophore corresponding to the spectral region of interest. Solutions of A647 were placed in the following wells: AC1, AD1: 3 mM, AC2, AD2: 300 uM, AC3, AD3: 30 uM, AC4, AD4: zero (DMSO), AE1, AF1: 3 uM, AE2, AF2: 900 nM, AE3, AF3: 300 nM, AE4, AF4: zero (DMSO). Assay Steps: Six uL of buffer were dispensed to 1536-well Greiner black plates. Compounds and dye standards (23 nL) were transferred via Kalypsys PinTool. The plates were incubated for 15 min at room temperature, and then read on ViewLux (Perkin-Elmer) High-throughput CCD imager using 570 nm and 671 nm excitation and emission filter set. Keywords: NIH Roadmap, MLSCN, MLI, MLSMR, qHTS, NCGC, A647, A-647, Fluorescent Profiling.
In general terms: qHTS replaces the single test concentration by a dilution series.
`CN(C(=O)Cc1ccccc1)[C@@H]1CC[C@@]2(CCCO2)C[C@H]1N1CCCC1`: the max dye-equivalent concentration is inactive: 2.7 nM. Then `C/C1=C2N=C(/C=C3N=C(/C(C)=C4\[N-][C@@](C)([C@H]5N=C1[C@@](C)(CCC(=O)NC[C@H](C)OP(=O)([O-])O[C@@H]1[C@H](O)[C@H](n6cnc7cc(C)c(C)cc76)O[C@@H]1CO)[C@@H]5CC(N)=O)[C@](C)(CC(N)=O)[C@H]4CCC(N)=O)[C@@](C)(CC(N)=O)[C@@H]\3CCC(N)=O)C(C)(C)[C@@H]/2CCC(N)=O.[C-]#N.[Co+3]`, with inactive: 4 nM; and `N#[O+].[C-]#N.[C-]#N.[C-]#N.[C-]#N.[C-]#N.[Fe+2].[Na+].[Na+]`, with inactive: 1 nM; and `CCN(CC)CC(O)COC(=O)C(O)(c1ccccc1)C1CCCCC1` (centres undefined), with inactive: 72 nM. In the case of `CCc1nc2c(n1)c1c(non1O)c1c2no[n+]1[O-]`, the max dye-equivalent concentration was inactive: 9.6 nM.

For the compound `COc1ccccc1OP(C)(=O)Nc1c(C)n(C)n(-c2ccccc2)c1=O` (centres undefined), the max dye-equivalent concentration is inactive: 3.6 nM. `O=C(CO)Nc1ccc([As](=O)(O)O)cc1`: the max dye-equivalent concentration was inactive: 7.9 nM.

`O=[N+]([O-])c1ccc(C[As](=O)(O)O)cc1`: the max dye-equivalent concentration is inactive: 48 nM. Then `NCC[C@@H](N)CSP(=O)(O)O`, with inactive: 38 nM; and `COc1ccccc1OP(C)(=O)Nc1ccc(C)c(C)c1` (centres undefined), with inactive: 3.4 nM; and `[N-]=[N+]=NCC(O)CN=[N+]=[N-]` (centres undefined), with inactive: 29 nM. The figure for `Cc1nc2ccc3ccccc3c2o1.O=[N+]([O-])c1cc([N+](=O)[O-])c(O)c([N+](=O)[O-])c1` is inactive: 2.2 nM. For `C(Cc1nn[nH]n1)c1nn[nH]n1`, the max dye-equivalent concentration was inactive: 24 nM. On to `COC(=O)c1cc2c(s1)N=C(c1ccccc1)N(C)P2(=O)N1CCOCC1` (centres undefined), for which the max dye-equivalent concentration is inactive: 17 nM.

`O=P1(Nc2nc3ccc(Cl)cc3s2)COc2ccccc2O1` (centres undefined): the max dye-equivalent concentration was inactive: 37 nM. As to `CP(=O)(Nc1ccccc1F)Oc1ccccc1` (centres undefined), the max dye-equivalent concentration is inactive: 1 nM. `O=P(Nc1nccs1)(c1ccccc1)c1ccccc1`: the max dye-equivalent concentration was inactive: 23 nM.

In the case of `c1nnnn1CCn1cnnn1`, the max dye-equivalent concentration is inactive: 1 nM. As for `CCOP(C)(=S)SCC(=O)NC(C)(CC)C(=O)O` (centres undefined), the max dye-equivalent concentration is inactive: 36 nM. Take `CN1CCC[C@H](OC(=O)C(c2ccccc2)c2ccccc2)C1`: the max dye-equivalent concentration is inactive: 57 nM. The figure for `NNC(NN)NN.n1nc(-c2nn[nH]n2)n[nH]1` is inactive: 11 nM; for `Cc1ccccc1NP(C)(=O)Nc1ccccc1C` it is inactive: 41 nM; for `C[C@@H](O)COc1ccc([As](=O)(O)O)cc1N` it is inactive: 4.3 nM. With `[N-]=[N+]=Nc1ccc([As](=O)(O)O)cc1`, the max dye-equivalent concentration is inactive: 3.6 nM.

With `CN(C)CCOC(=O)C(O)(c1ccccc1)C1CCCCC1` (centres undefined), the max dye-equivalent concentration is inactive: 1 nM. Then `O=C(OC1CN2CCC1CC2)c1cccc(Cl)c1` (centres undefined), with inactive: 6.1 nM; and `Cc1nn(-c2ccccc2)c2c1P(=O)(N1CCOCC1)N(C)C(c1ccccc1)=N2` (centres undefined), with inactive: 21 nM; and `O=P1(Nc2ncccn2)COc2ccccc2OC1`, with inactive: 6.8 nM. With `O=P1(Nc2ccc(Br)cn2)COc2ccccc2OC1`, the max dye-equivalent concentration was inactive: 30 nM. For the compound `Cc1ccc(OCC(=O)OC2CN3CCC2CC3)cc1` (centres undefined), the max dye-equivalent concentration is inactive: 5 nM. For `O=P1(Nc2ccccn2)COc2ccccc2OC1`, the max dye-equivalent concentration is inactive: 30 nM. Take `CN(CCCl)Cc1cc(Cl)c(NC2=NCCN2)c(Cl)c1`: the max dye-equivalent concentration was inactive: 1 nM. On to `Clc1n[nH]nc1-c1nn[nH][15n]1`, for which the max dye-equivalent concentration was inactive: 6.6 nM. With `Cc1nc2ccc3ccccc3c2s1.O=[N+]([O-])c1cc([N+](=O)[O-])c(O)c([N+](=O)[O-])c1`, the max dye-equivalent concentration was inactive: 15 nM. For the compound `Cc1cccc(OCC(=O)OC2CN3CCC2CC3)c1` (centres undefined), the max dye-equivalent concentration was inactive: 98 nM. Consider `O=C(CC(=O)c1ccccc1)O[C@H]1CN2CCC1CC2`, for which the max dye-equivalent concentration is inactive: 1 nM. Turning to `NS(=O)(=O)Cc1ccc([As](=O)(O)O)cc1`, the max dye-equivalent concentration is inactive: 1 nM. Take `CN(C(=O)Cc1ccc(Cl)c(Cl)c1)[C@@H]1CC[C@@]2(CCCO2)C[C@H]1N1CCCC1`: the max dye-equivalent concentration is inactive: 1 nM. Then `CCOP1(=S)c2c(C)nn(CCC#N)c2N=C(c2ccccc2F)N1C` (centres undefined), with inactive: 10 nM; and `O=P(Nc1nccs1)(c1ccccc1)c1nc2ccccc2s1` (centres undefined), with inactive: 51 nM. With `O=[As](O)(O)c1ccc([As](=O)(O)O)cc1`, the max dye-equivalent concentration was inactive: 6 nM. Turning to `NC(=O)Nc1ccc([As](=O)(O)O)cc1`, the max dye-equivalent concentration is inactive: 5.8 nM. Then `CCOP1(=S)c2c(C)nn(CCC#N)c2N=C(c2ccc(F)cc2)N1C` (centres undefined), with inactive: 53 nM; and `O=[As]c1ccc(S(=O)(=O)NCCO)cc1` (centres undefined), with inactive: 1 nM.

As to `[N-]=[N+]=NCC(N)=O`, the max dye-equivalent concentration is inactive: 48 nM.

Take `COc1ccccc1OP(C)(=O)Nc1ccc(C)cc1` (centres undefined): the max dye-equivalent concentration is inactive: 9.8 nM. For `O=C(OC1CN2CCC1CC2)C12CC3CC(CC(C3)C1)C2` (centres undefined), the max dye-equivalent concentration was inactive: 42 nM. Regarding `NC(=O)Nc1cc([As](=O)(O)O)cc(I)c1O`, the max dye-equivalent concentration was inactive: 50 nM. Take `COP1(=S)c2c(C)nn(CCC#N)c2N=C(c2ccc(F)cc2)N1C` (centres undefined): the max dye-equivalent concentration is inactive: 26 nM. On to `O=C(O)[C@@H](O)c1ccc([As](=O)(O)O)cc1`, for which the max dye-equivalent concentration was inactive: 9.8 nM. In the case of `CP(=O)(NC(=O)Nc1ccccc1)Oc1ccccc1` (centres undefined), the max dye-equivalent concentration is inactive: 1 nM. On to `O=C(COc1ccccc1)OC1CN2CCC1CC2` (centres undefined), for which the max dye-equivalent concentration is inactive: 2.9 nM.

For the compound `N1=C(c2nnc(-c3nn[nH]n3)nn2)NNN1`, the max dye-equivalent concentration is inactive: 1 nM. Then `CP(=S)(Nn1cnnc1)Oc1ccccc1` (centres undefined), with inactive: 4.1 nM.
